Screening data (PubChem)
Compounds with a hit are over-represented: about 0.91% of the library has one in this group of screens.
PGC1a acetyl inh = lowers PGC1a acetylation signal in U2OS cells; 0.17% of 350,000 active; AlphaScreen anti-acetyl-lysine; with virally co-expressed GCN5 acetyltransferase; inhibition, % at 15.6 µM;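 active = every replicate shows inhibition of at least 40%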;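 also: 0% = neutral control wells and 100% = positive control wells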
Yeast UUG start = modulators of yeast start codon fidelity, primary screen, whole organism, S. cerevisiae, single point, plate reader; S. cerevisiae UUG-firefly luciferase reporter, luminescence/redox ratio; activity score, % at 18.7 µM; actives 0.13% (n = 350,000); AID 602363, 2012;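 active = replicate mean at a twofold rise or more, about +100% in these data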;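 also: firefly luciferase made from a UUG start codon reports start codon fidelity; reporter light over untreated wells divided by growth signal over untreated wells; some hits fall short of that in this replicate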
C2C12 statin = suppressors of simvastatin-induced myotoxicity in C2C12 myotubes. ATP luminescence, 48 h; scaled: DMSO 0, geranylgeraniol control 100. rescue of ATP level, % at 7.49 µM. 0.78% of 330,000 active;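 active = mean ATP rescue above about 67%, or every replicate alone reaching that limit, limit read from the data, passing the limit was not always enough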;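 also: myotubes were challenged with 10 µM simvastatin during compound exposure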
hiPSC survival = increases survival of single human iPS cells; survival enhancement, % at 20 µM; 0.044% of 360,000 active; hiPSC single-cell survival, ATPlite luminescence; 100% = ROCK inhibitor wells, 0% = DMSO; in the data active = survival enhancement above about 18%;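 also: cells exposed to compounds for 16 hours before the ATP read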
FN deposition inh = fibronectin deposition inhibition; 0.086% of 350,000 active; AH1F fibroblasts, Alexa488-fibronectin deposition fluorescence, overnight; inhibition, % at 12.6 µM; AID 743247;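 active = mean inhibition across replicates of 30% or more, regardless of how many single replicates reach that level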;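 also: positive control wells lacked labelled fibronectin entirely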
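Schedule: 1 h cell adhesion before compound, then overnight fibronectin incubation; test system: AH1F fibroblast monolayer depositing Alexa488-labelled fibronectin into matrix; quantity: 10000 AH1F cells per well; probe or stimulus: fluorescent fibronectin at 24 nM final; signal: fluorescence, ex 485 nm, em 525 nm; evaluation: percent inhibition as loss of matrix-bound fibronectin fluorescence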
* marks the source's active call; other numbers are inactive results; . = not tested or not shown.

SMILES	PGC1a acetyl inh	Yeast UUG start	C2C12 statin	hiPSC survival	FN deposition inh
O=C(NCC[C@H]1CC[C@H](NC(=O)c2cccnc2)[C@H](CO)O1)Nc1ccc(F)cc1	2	203*	6	.	.
O=C(Cc1ccccn1)NCC[C@H]1CC[C@H](NC(=O)Nc2ccc(C(F)(F)F)cc2)[C@H](CO)O1	48*	1	-1	.	-11
CCCC#Cc1ccc([C@@H]2[C@@H](CO)N3C(=O)CN(C(=O)c4ccccc4)C[C@@H]23)cc1	1	.	.	.	.
COc1ccc2c3c(n(C)c2c1)[C@@H](CO)N(Cc1nccs1)CC31CCN(C)CC1	-8	.	.	.	.
O=C(CSc1nnc(-c2ccccc2)n1-c1ccccc1)c1ccc[nH]1	.	.	.	6	33*
Cc1cccc(NC(=O)CSc2nccn2C)c1	0	.	.	2	.
Cn1ccnc1SCC(=O)Nc1ccccc1	-19	-11	137*	0	.
Cc1cccc(COc2ccc(/C=C3/C(=O)N(C)C(=S)N3C)cc2)c1	71*	-10	-37	-1	1
Cc1ccc(-c2nc(NCc3ccco3)c3ccccc3n2)cc1	-11	.	-6	-1	6
Cc1ccc(OCCN2CCN(c3nc(NCc4ccco4)c4ccccc4n3)CC2)cc1	-7	-8	.	24*	.
c1ccc(CN2CCN(c3nc(NCc4ccco4)c4ccccc4n3)CC2)cc1	-13	-18	-21	30*	.
c1cncc(-c2nc(NCc3ccco3)c3ccccc3n2)c1	-11	-13	94*	-5	.
C[C@@H]1CCCCO[C@H](CN(C)S(=O)(=O)c2ccc(Cl)cc2)[C@@H](C)CN([C@@H](C)CO)C(=O)c2cc(NS(=O)(=O)c3ccccc3)ccc2O1	9	.	.	.	-6
CC(=O)C1=C(c2ccc(Br)cc2)C(=O)c2ccccc2C1=O	.	-31	-122	-2	39*
O=[N+]([O-])c1cc(S(=O)(=O)C(F)(F)F)ccc1Sc1nc2ccccc2s1	0	-24	86*	-3	.
CS(=O)(=O)c1ccc(Sc2nc3ccccc3s2)c([N+](=O)[O-])c1	-5	-10	.	-4	.
Cc1ccc(NC(=O)c2ccc(CSc3nnc(C)s3)cc2)cc1	-6	-13	.	-4	.
Cc1cc(C)cc(NC(=O)c2ccc(CSc3nnc(C)s3)cc2)c1	-4	-14	122*	1	.
CCOC(=O)N1CCN(C(=O)C[C@H]2C[C@@]3(C(=O)OC)C(=C[C@H](COCc4ccccc4)O[C@@H]3C)N(CCC3=CCCCC3)C2=O)CC1	.	.	.	.	-6
Cc1cc(C)c(Cn2c(=O)n(CCCC(=O)NCc3ccco3)c(=O)c3sccc32)c(C)c1	-22	-18	-28	-4	34*
CCC(C)(C)NC(=O)CN(C(=O)CNS(=O)(=O)c1ccccc1)c1ccccc1	-12	-14	101*	0	.
CO[C@@H]1CN(C)C(=O)c2ccc(NC(=O)C3CCOCC3)cc2OC[C@@H](C)N(CC2CC2)C[C@H]1C	-24	-5	6	.	-3
Cc1ccc(C2C=C(c3ccccc3OC(F)F)Nc3ncnn32)cc1 (stereo unspecified)	0	-19	107*	5	.
CN(C)c1ccc(C2C=C(c3ccc(Cl)cc3OC(F)F)Nc3ncnn32)cc1 (stereo unspecified)	.	-6	-117	-2	.
CCOCCCN1CN(S(=O)(=O)c2ccc(Cl)cc2)c2nc3ccccc3nc21	2	-11	133*	-1	.
SMILES	PGC1a acetyl inh	Yeast UUG start	C2C12 statin	hiPSC survival	FN deposition inh
Nc1nc(NCc2c(F)cccc2Cl)nn1-c1ccccc1	9	-27	101*	-3	-5
Cc1ccccc1CNc1nc(N)n(-c2ccccc2)n1	-3	-20	0	-2	6
CC(=O)N1CC2(C1)[C@H](c1ccc(-c3ccc(F)cc3)cc1)[C@H](CO)N2CC1CC1	-6	.	.	.	7
CN(C)/C=C1\N=C(c2ccccc2)OC1=O	1	-13	10	4	.
COc1ccc(/C=C/C2=NC(=C\N(C)C)/C(=O)O2)cc1	-3	6	114*	-1	.
CN(C)C(=O)c1cccc(-c2ccc3c(c2)[C@@H]2[C@@H](CCN2Cc2ccccc2F)[C@@H](CO)N3)c1	9	-11	-25	.	14
COc1ccc(C2NC(c3ccc(OC)c(OC)c3OC)C(C)C(=O)C2C)c(OC)c1OC (stereo unspecified)	-21	8	86*	-2	6
O=C(c1cccs1)N1CCN(C2CCCCC2)CC1	1	-7	1	-2	-9
O=C(c1cccs1)N1CCN(C2CCN(Cc3ccccc3)CC2)CC1	3	-17	101*	2	.
COc1ccc(CN2CCN(C(=O)c3cccc4ccccc34)CC2)cc1Br	-2	-14	-6	0	3
COc1ccc(CN2CCN(C(=O)c3cccs3)CC2)cc1Br	4	-14	157*	0	.
CO[C@@H]1CN(C)C(=O)c2cc(NC(=O)C3CCC3)ccc2OC[C@H](C)N(C(=O)NC(C)C)C[C@@H]1C	-3	6	4	.	0
COc1ccccc1CNC(=O)C[C@@H]1C[C@H]2c3cc(NS(C)(=O)=O)ccc3O[C@H]2[C@@H](CO)O1	4	-13	3	.	-5
Cc1ccc(S(=O)(=O)Nc2cccc3c2O[C@@H](CN(C)S(=O)(=O)c2ccc(C)cc2)[C@H](C)CN([C@H](C)CO)C3=O)cc1	8	-14	-22	.	.
O=C(C[C@@H]1C=C[C@@H](NC(=O)NC2CCCC2)[C@H](CO)O1)NCc1ccc(F)cc1	1	-7	4	.	-10
COCCNC(=O)C[C@H]1C[C@H]2c3cc(NC(=O)c4ccc5c(c4)OCO5)ccc3O[C@H]2[C@H](CO)O1	-2	5	6	.	.
CC(=O)N1c2ccc(S(=O)(=O)NCCC(=O)NCc3ccc(N(C)C)cc3)cc2CC1C (stereo unspecified)	-6	-18	92*	-1	9
Cc1cccc(NC2=NC(C)(C)N=C(N)N2)c1C	-4	-10	112*	-2	-2
Cc1ccccc1NC1=NC(C)(C)N=C(N)N1	-5	-12	-3	-2	6
CCC(=O)Nc1ccc2c(c1)C(=O)N(C)[C@@H]1CC[C@H](CC(=O)NCCOC)O[C@@H]1CO2	3	0	-10	.	-3
CC[C@H](C)[C@@H]1NC(=O)[C@@H](CC(C)C)NC(=O)[C@H](C(C)C)NC(=O)[C@H]2CSSC[C@H](NC1=O)C(=O)N2	72*	-10	-213	-5	34*
C[C@H](CO)N1C[C@H](C)[C@H](CN(C)Cc2ccccc2)Oc2ccc(NC(=O)Cc3cn(C)c4ccccc34)cc2CC1=O	.	-7	21	.	.
C[C@H](CO)N1C[C@H](C)[C@@H](CN(C)Cc2ccc(-c3ccccc3)cc2)Oc2ccc(NC(=O)Cc3ccccc3)cc2CC1=O	-2	14	76*	.	.
C[C@H](CO)N1C[C@H](C)[C@H](CN(C)Cc2ccc(-c3ccccc3)cc2)Oc2ccc(NC(=O)Cc3ccccc3)cc2CC1=O	-5	8	32	.	.

6 consecutive compounds out of the list so far, for reference:
SMILES	PGC1a acetyl inh	Yeast UUG start	C2C12 statin	hiPSC survival	FN deposition inh
O=C(C[C@@H]1C=C[C@@H](NC(=O)NC2CCCC2)[C@H](CO)O1)NCc1ccc(F)cc1	1	-7	4	.	-10
COCCNC(=O)C[C@H]1C[C@H]2c3cc(NC(=O)c4ccc5c(c4)OCO5)ccc3O[C@H]2[C@H](CO)O1	-2	5	6	.	.
CC(=O)N1c2ccc(S(=O)(=O)NCCC(=O)NCc3ccc(N(C)C)cc3)cc2CC1C (stereo unspecified)	-6	-18	92*	-1	9
Cc1cccc(NC2=NC(C)(C)N=C(N)N2)c1C	-4	-10	112*	-2	-2
Cc1ccccc1NC1=NC(C)(C)N=C(N)N1	-5	-12	-3	-2	6
CCC(=O)Nc1ccc2c(c1)C(=O)N(C)[C@@H]1CC[C@H](CC(=O)NCCOC)O[C@@H]1CO2	3	0	-10	.	-3
